The values that follow come from PubChem BioAssay AID485 (The Scripps Research Institute Molecular Screening Center, 2006).

By UniProt entry, the sequences of proteins in these tests, tags left out.
UniProt Q99500, whole entry: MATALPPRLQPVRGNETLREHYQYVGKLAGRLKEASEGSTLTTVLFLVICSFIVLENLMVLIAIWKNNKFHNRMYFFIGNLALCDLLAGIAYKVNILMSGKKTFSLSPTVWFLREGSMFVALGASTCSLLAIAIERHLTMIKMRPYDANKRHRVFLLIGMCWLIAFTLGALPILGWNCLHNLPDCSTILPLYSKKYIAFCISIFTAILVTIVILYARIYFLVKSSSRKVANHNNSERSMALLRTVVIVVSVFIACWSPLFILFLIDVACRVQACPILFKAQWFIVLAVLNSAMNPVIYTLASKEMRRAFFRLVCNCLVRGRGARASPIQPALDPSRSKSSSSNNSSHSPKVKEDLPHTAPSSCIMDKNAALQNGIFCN

The structures appear in SMILES notation. Only a part is listed here, and it is no random draw. Some of these compounds have results that are not shown, active ones among them. The source made the active and inactive calls.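 The calls were made as follows: active = inhibition above the plate cutoff, the mean inhibition of test wells on that plate plus 3 SD (cut at about 28% in these data); inactive = the rest.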

In general, inhibition refers to the change of the read-out against control, counted positive when it falls.

The target in this experiment is Sphingosine 1-phosphate receptor 3 (Homo sapiens) (UniProt Q99500). Put plainly: S1P3 receptor antagonists, primary screen, cell-based (AID 485).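 Also: cells challenged with S1P at its EC80 of 0.8 µM; blue over green emission ratio from cleaved BLA substrate after 4 h stimulation; 0% = S1P-stimulated wells and 100% = unstimulated DMSO-only wells.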 To be noted: CHO S1P3 NFAT-BLA reporter, FRET fluorescence, antagonist mode; at 4.98 µM; stronger effect = higher value.
In the case of `CN(C)C1CCCC1OC(=O)C(O)(c1ccccc1)c1ccccc1` (stereo not given), the inhibition is inactive: 0.57%.

Turning to `Cc1ccccc1C(=O)NCC1(N2CCCCC2)CCCCC1`, the inhibition is inactive: -27%. For `C=CCN1CCN(CCOC(=O)C(O)(c2ccccc2)c2ccccc2)CC1` the value was inactive: -4.09%. Turning to `CCN1CCCC(OC(=O)C2(O)c3ccccc3C=Cc3ccccc32)C1` (stereo not given), the inhibition is inactive: -19.4%. On to `O=C(NCC1(N2CCCCC2)CCCCC1)c1cc([N+](=O)[O-])ccc1Cl`, for which the inhibition was inactive: -1.99%.

On to `CCN(CC)CC(C)C(C)OC(=O)C(O)(c1ccccc1)c1ccccc1` (stereo not given), for which the inhibition is inactive: 7.04%.

Consider `O=C(OC1CN2CCC1CC2)C(CO)(c1ccccc1)c1ccccc1` (stereo not given), for which the inhibition is inactive: -9.6%.

Turning to `COc1ccc(Br)c(C(=O)NCC2(N3CCCCC3)CCCCC2)c1`, the inhibition is inactive: -2.72%. For `CN(C)c1cccc(C(=O)NCC2(N(C)C)CCCCC2)c1` the value was inactive: -29.9%; for `COc1cccc(C(=O)NCC2(N3CCCCC3)CCCCC2)c1`, inactive: -0.14%.
